Data from US12415832B2, “B-catenin/B-cell Lymphoma 9 protein-protein interaction inhibiting peptidomimetics” (University of South Florida, priority 2019, dated 2025).

System: SW480 cells
Conditions: 1 and 10 μM, 2 h

Question: How did the “cellular uptake, intracellular green fluorescence” value turn out when “Flu-Beta-Ala-SQEQLEHRERSLQTLRDIQRMLF [Peptide 1-FITC]” was run?
Answer: Its value is “negligible green fluorescence”.
